The values below come from PubChem BioAssay AID602283 (Johns Hopkins Ion Channel Center, 2012).

Molecules are shown by their SMILES. This is a selection; strong and weak results do not stand in their true shares. Calls of active or inactive are those of the source.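 The calls were made as follows: active = inhibition exceeding 3 SD of buffer-only control wells (cut at about 26% in these data); inactive = the rest.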

The nature of this assay: M3R calcium signalling without RGS4 expression – cell-based, HEK293 M3R, non-induced RGS4, Fluo-4 calcium, counter-screen for RGS4 activator project, primary screen (AID 602283).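 Also: percent drop in integrated peak-minus-baseline over baseline Fluo4 ratio after carbachol.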 The conditions noted are these: HEK293 M3R non-induced RGS4, Fluo4 calcium flux; at 10 µM; active compounds read high; after carbachol challenge at its EC90. (In general: The purpose of a counterscreen is to sort out artefacts and off-target activity.)
For orientation: inhibition means the percentage by which the read-out fell short of the control. Consider `CN1CCCCC1COC(=O)C1(O)c2ccccc2CCc2ccccc21` (centres undefined), for which the inhibition was active: 25.8%. Consider `CCN(CC)CCCOC(=O)C(O)(c1ccccc1)c1ccccc1`, for which the inhibition is active: 93.3%. Next, `O=C(OCCCN1CCCC1)C(O)(c1ccccc1)C1CCCCC1` (centres undefined): active: 90.3%; `CN(C)CCOC(=O)C(O)(c1ccccc1)C1CCCCC1` (centres undefined): active: 94.8%.
